Here are results for one molecule from patent US20230003721A1, “MITOTHERAPEUTICS FOR THE TREATMENT OF BRAIN DISORDERS” (The University of Florida Research Foundation, Inc., priority 2019, published 2023).

One test has as its system primary neurons. Briefly: Oxygen consumption rate (OCR) of permeabilized primary neurons. The test is classed as cell-based, mouse. As to the method:
Respiration of isolated mitochondria. The oxygen consumption rate (OCR) of permeabilized neurons and isolated brain mitochondria (from 9-month old mice) was measured by the XF96 Extracellular Flux analyzer (Seahorse Bioscience). For assays using cultured neurons, primary neurons were dissociated from the forebrains of P0 pups, seeded at 1.9×10^4/well (PDL-coated XF96 plate), cultured to DIV13 and incubated with dyclonine or DMSO (0.1%) for 24 hours. Prior to the start of the OCR measurement, all but 30 μl of Neurobasal A/B27 culture medium was removed from each well. Cells were washed twice with pre-warmed MAS-BSA assay medium (4 mg/ml fatty-acid free BSA, pH=7.2) and incubated in 180 μl at 37° C. for 5 min. Following the cartridge calibration, cells were loaded into the XF96 Extracellular Flux analyzer and further equilibrated for 10 min with two cycles of 3 min mixing and 2 min resting prior to the first measurement of basal respiration. OCR were measured at 37° C. under basal conditions followed by the sequential injection of pre-warmed 10× mitochondrial substrates/ADP (20 μl), oligomycin (22 μl), FCCP (24 μl), and rotenone/antimycin A (26 μl). The final concentrations of injected compounds were as follows: 10 mM mitochondrial substrates (pyruvate/malate or succinate), 1 mM ADP, 1.5 μM oligomycin, 3 μM FCCP, 2 μM rotenone/antimycin A. Saponin (25 μg/ml) was co-injected with substrate/ADP to permeabilize the cells and stimulate ADP-dependent respiration. Two baseline measurements were obtained prior to any injection and 2 response measurements were collected after each injection except for after FCCP addition which consisted of 1 measurement (9 total measurements in each assay). Each measurement cycle consisted of 2 min mixing, 2 min waiting, and 3 min data acquisition. This protocol allowed for sequential assessment of basal cell respiration, maximal mitochondrial respiratory capacity (State 3 with substrate/ADP), proton leak (State 4o with oligomycin), uncoupled maximal respiration (State 3U with FCCP) and non-mitochondrial respiration with the Complex I/Complex III inhibitors, rotenone/antimycin A. Cells were washed twice with MAS buffer to remove residue BSA contained in the assay medium, lysed in 50 μl lysis buffer (25 mM HEPES, 1 mM EGTA, 1 mM EDTA, 0.1% SDS, 1% NP-40, 1× protease and phosphatase inhibitor, pH 7.0 adjusted with NaOH) and total protein was determined by BCA assay. Oxygen consumption was normalized to total protein content as pmol O2/min/ug total protein.
Measurement of mitochondrial O2 consumption. […] OCR and ECAR were measured at 37° C. under basal conditions followed by the sequential injection of pre-warmed 10× mitochondrial substrates/ADP (20 μl), oligomycin (22 μl), FCCP (24 μl), and rotenone/antimycin A (26 μl). […]

Another test has as its system C57BL/6J mice. As to the kind of experiment: Respiration of brain mitochondria isolated from mice given compound in drinking water. The test is classed as in vivo, mouse. Particulars: 5 mg/kg in water, 7 months, Complex I and II substrates. The protocol: For respiration experiments using isolated mitochondria, C57BL/6J mice were grouped to receive 25 mg/kg dyclonine-supplemented or standard water for 7 months starting at 2 months of age. The water supply was refreshed weekly. Mice were housed on a 12 h: 12 h light dark cycle with ad libitum access to food and water. All experiments were performed during the light part of the diurnal cycle. Housing, animal care and experimental procedures were consistent with the Guide for the Care and Use of Laboratory Animals and approved by the Institutional Animal Care and Use Committee of The Scripps Research Institute.
Whole brains were harvested from 2 mice/group of 9-month old C57BL/6J mice receiving 25 mg/kg dyclonine-supplemented or standard water for 7 months. […] The yield of mitochondrial protein was determined by BCA assay.
For OCR measurements of isolated brain mitochondria, the mitochondria were diluted to 3 μg/20 μl in cold MAS-BSA buffer+substrate (pyruvate/malate or succinate, to maintain healthy state of mitochondria) and plated onto 96-well PDL-coated plates (20 μl/well). […] State 3 respiration parameters driven by mitochondrial Complex I substrates (pyruvate/malate) were measured first, while Complex II-driven respiration (succinate) was measured by inhibiting Complex I with rotenone (2 μM). OCR was calculated by the Seahorse XF96 software package. […]

SMILES strings stand for the structures. Structures can show the parent of a compound that is named as a salt.

`COC(=O)[C@@H]1[C@H]2C[C@H]3c4[nH]c5ccccc5c4CCN3C[C@@H]2CC[C@@H]1O` [YOHIMBINE HYDROCHLORIDE]: the “basal rate of respiration” value in the test with primary neurons (10 μM, 24 h) was “weak, non-significant, but consistent trend towards an increased basal rate of respiration”. The “State 3 and 3u respiration stimulated by either Complex I or Complex II substrates” value in the test on primary neurons (10 μM, 24 h, cultured neurons) was “significant increase”. The “Respiratory Control Ratio (RCR, State 3/4o)” value with primary neurons (mitochondria from cultured neurons, Complex I and II substrates) is “significantly increased”; with C57BL/6J mice, “significantly increased”. Besides, in the test on primary neurons (oxygen consumption rate, significant change), the OCR entry is on record as “increased”.
